In test [1] the target is T1, ferroportin (Homo sapiens, UniProt Q9NP59).
T1 sequence (Q9NP59 1-571): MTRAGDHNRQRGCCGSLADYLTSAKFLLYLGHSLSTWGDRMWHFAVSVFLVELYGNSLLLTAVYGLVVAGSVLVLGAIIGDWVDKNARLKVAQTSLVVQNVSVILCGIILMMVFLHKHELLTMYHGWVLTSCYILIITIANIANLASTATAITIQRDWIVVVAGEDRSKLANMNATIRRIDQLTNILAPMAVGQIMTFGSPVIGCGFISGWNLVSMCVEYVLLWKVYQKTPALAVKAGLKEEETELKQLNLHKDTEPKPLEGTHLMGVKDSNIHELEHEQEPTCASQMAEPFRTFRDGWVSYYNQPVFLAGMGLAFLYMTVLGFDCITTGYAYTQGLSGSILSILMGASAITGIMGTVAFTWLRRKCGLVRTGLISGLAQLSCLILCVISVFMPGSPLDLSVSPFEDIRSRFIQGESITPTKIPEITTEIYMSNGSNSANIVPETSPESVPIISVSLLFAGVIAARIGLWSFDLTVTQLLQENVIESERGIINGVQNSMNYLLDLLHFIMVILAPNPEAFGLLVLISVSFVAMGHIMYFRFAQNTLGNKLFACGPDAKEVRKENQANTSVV
As to the kind of experiment: FPN internalization assay (FPN activity assay), loss of ferroportin-GFP fluorescence. The class given is cell-based.

Test [2] has as its target T1, ferroportin. As to the kind of experiment: T47D internalization assay in presence of mouse serum albumin. The test is classed as cell-based. Also on record: a human breast carcinoma adherent cell line which endogenously expresses ferroportin; host or cells: T47D. The settings on record: T47D cells, 0.5% mouse serum albumin, 1 hr incubation. The method in brief: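 Flow cytometry median fluorescence of live singlet cells gave IC50 via 4-parameter fit. Peptides in 0.5% MSA (30 min preincubation, 10 points from ~5 μM) were applied to T47D cells for 1 h, followed by a 2 h exposure to AF647 detection peptide at a fixed 200 nM.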

Where [3] appears, read: Table 1D, HEK293 cells stably expressing ferroportin-GFP, compound at least 18 hours, read-out: IC50: FPN.
Setting [4] is: Table 1D, read-out: IC50: T47D MSA.
[5] abbreviates: Table 1C, HEK293 cells stably expressing ferroportin-GFP, compound at least 18 hours, read-out: IC50: FPN.
[6] abbreviates: Table 1C, read-out: IC50: T47D MSA.

SMILES strings stand for the structures.

The results in this text go back to patent US20250361280A1 (Protagonist Therapeutics, Inc., priority 2022, published 2025).

As a reminder, the IC50 is the concentration at which inhibition is half-maximal. Regarding `CC(C)CC(=O)N[C@@H](CCC(=O)O)C(=O)N[C@H](C(=O)N[C@@H](Cc1c[nH]cn1)C(=O)N[C@H](C(=O)N1CCC[C@H]1C(=O)Nc1ccc(C(=O)N(C)[C@@H](CCCCNC(=O)COCCOCCNC(=O)COCCOCCNC(=O)[C@H](CN)NC(=O)CCCCCCCCCCCCCCCCC(=O)O)C(=O)N[C@@H](Cc2ccc(-c3ccccc3)cc2)C(=O)N[C@H](CCCCN)C(N)=O)cc1)C(c1ccccc1)c1ccccc1)[C@@H](C)O` [compound 38], the half-maximal inhibitory concentration (IC50) was 1 to 30 nM against ferroportin [1] and 10 to 100 nM on ferroportin [2] (IC50: T47D MSA, Table 1C).

Regarding `CCCCCCCCCCCCCCCC(=O)NCC[N+](C)(C)CC(=O)NCCOCCOCC(=O)NCCOCCOCC(=O)NCCCC[C@H](NC(=O)[C@@H]1CCCN1C(=O)[C@@H](NC(=O)[C@H](Cc1c[nH]cn1)NC(=O)[C@@H](NC(=O)[C@H](CCC(=O)O)NC(=O)CC(C)C)[C@@H](C)O)C(c1ccccc1)c1ccccc1)C(=O)NCc1ccc(N2CCOCC2)cc1` [compound 105], the IC50 at ferroportin [1] (setting [3]) was above 500 nM; on ferroportin [2] (setting [4]) it was 0.1 to 10 nM.

As to `CCCCCCCCCCCCCCCC(=O)NCC[N+](C)(C)CC(=O)NCCOCCOCC(=O)NCCOCCOCC(=O)NCCCC[C@H](NC(=O)[C@@H]1CCCN1C(=O)[C@@H](NC(=O)[C@H](Cc1c[nH]cn1)NC(=O)[C@@H](NC(=O)[C@H](CCC(=O)O)NC(=O)CC(C)C)[C@@H](C)O)C(c1ccccc1)c1ccccc1)C(=O)NCCCCc1ccc(I)cc1` [compound 99], the IC50 was in the range of 1 to 30 nM at ferroportin [1] and 10 to 100 nM on ferroportin [2] (IC50: T47D MSA (nM, Table 1D)).

With `CCCCCCCCCCCCCCCC(=O)NCC[N+](C)(C)CC(=O)NCCOCCOCC(=O)NCCOCCOCC(=O)NCCCC[C@H](NC(=O)[C@@H]1CCCN1C(=O)[C@@H](NC(=O)[C@H](Cc1c[nH]cn1)NC(=O)[C@@H](NC(=O)[C@H](CCC(=O)OC)NC(=O)CC(C)C)[C@@H](C)O)C(c1ccccc1)c1ccccc1)C(=O)NCCCCc1ccccc1` [compound 206], the IC50 at ferroportin [1] (setting [3]) is 1 to 30 nM; on ferroportin [2] (setting [4]) it was 100 to 500 nM.

As to `CCCCCCCCCCCCCCCC(=O)NCC[N+](C)(C)CC(=O)NCCOCCOCCOCCOCCC(=O)NCCCC[C@H](NC(=O)[C@@H]1CCCN1C(=O)[C@@H](NC(=O)[C@H](Cc1c[nH]cn1)NC(=O)[C@@H](NC(=O)[C@H](CCC(=O)O)NC(=O)CC(C)C)[C@@H](C)O)C(c1ccccc1)c1ccccc1)C(=O)N[C@@H](Cc1ccccc1)C(=O)NCCCCC` [compound 184], the IC50 at ferroportin [1] (setting [3]) fell in the range of 1 to 30 nM; on ferroportin [2] (setting [4]), 0.1 to 10 nM.

Regarding `CCCCCCCCCCCCCCCC(=O)N[C@@H](CN)C(=O)NCCOCCOCC(=O)NCCOCCOCC(=O)NCCCC[C@H](NC(=O)[C@@H]1C[C@@H]2CN1C(=O)[C@H](C(c1ccccc1)c1ccccc1)NC(=O)[C@H](Cc1cnc[nH]1)NC(=O)[C@@H]1C[C@@H](CN1C(=O)[C@H](CCC(=O)O)NC(=O)CC(C)C)SS2)C(=O)NCCCCc1ccccc1` [compound 23], the IC50 was in the range of 1 to 30 nM on ferroportin [1] (setting [5]) and 0.1 to 10 nM at ferroportin [2] (setting [6]).

On to `CCCCCCCCCCCCCCCC(=O)NCC[N+](C)(C)CC(=O)NCCCC[C@H](NC(=O)[C@@H]1CCCN1C(=O)[C@@H](NC(=O)[C@H](Cc1c[nH]cn1)NC(=O)[C@@H](NC(=O)[C@H](CCC(=O)O)NC(=O)CC(C)C)[C@@H](C)O)C(c1ccccc1)c1ccccc1)C(=O)N[C@@H](Cc1ccccc1)C(=O)NCCCCC` [compound 185], for which the IC50 on ferroportin [1] (setting [3]) fell in the range of 1 to 30 nM; at ferroportin [2] (setting [4]) it was 10 to 100 nM.

With `COC(=O)CCC(CCCC(C)C)C(=O)N[C@H](C(=O)N[C@@H](Cc1c[nH]cn1)C(=O)N[C@H](C(=O)N1CCC[C@H]1C(=O)N[C@H](CCCCN)C(=O)NCCCCc1ccccc1)C(c1ccccc1)c1ccccc1)[C@@H](C)O` (single isomer, unassigned) [compound 164], the IC50 on ferroportin [1] (setting [3]) and at ferroportin [2] (setting [4]) was above 500 nM in each case.

For `CC(C)CC(=O)N[C@@H](CCC(=O)O)C(=O)N[C@H](C(=O)N[C@@H](Cc1c[nH]cn1)C(=O)N[C@H](C(=O)N1CCC[C@H]1C(=O)Nc1ccc(C(=O)N(C)[C@@H](CCCCNC(=O)CCCCCNC(=O)C[N+](C)(C)CCNC(=O)CCCCCCCCCCCCCCCCC(=O)O)C(=O)N[C@@H](Cc2ccc(-c3ccccc3)cc2)C(=O)N[C@H](CCCCN)C(N)=O)cc1)C(c1ccccc1)c1ccccc1)[C@@H](C)O` [compound 29], the IC50 was 30 to 100 nM at ferroportin [1] and 10 to 100 nM at ferroportin [2] (IC50: T47D MSA, Table 1C).

Take `CC(C)CC(=O)N[C@@H](CCC(=O)O)C(=O)N[C@H](C(=O)N[C@@H](Cc1c[nH]cn1)C(=O)N[C@H](C(=O)N1CCC[C@H]1C(=O)N[C@H](CCCCN)C(=O)N(Cc1ccccc1)C(CC(C)C)C(=O)O)C(c1ccccc1)c1ccccc1)[C@@H](C)O` (stereo partly shown) [compound 144]: the IC50 on ferroportin [1] (setting [3]) and on ferroportin [2] (setting [4]) was above 500 nM each time.

For `CC(C)CC(=O)N[C@@H](CCC(=O)O)C(=O)N[C@H](C(=O)N[C@@H](Cc1c[nH]cn1)C(=O)N[C@H](C(=O)N1CCC[C@H]1C(=O)NCCCCc1ccc(I)cc1)C(c1ccccc1)c1ccccc1)[C@@H](C)O` [compound 98], the half-inhibitory concentration (IC50) on ferroportin [1] was above 500 nM; on ferroportin [2] (IC50: T47D MSA (nM, Table 1D)) it was above 500 nM.

Take `CCCCCCCCCCCCCCCC(=O)NCC[N+](C)(C)CC(=O)NCCOCCOCC(=O)NCCOCCOCC(=O)NCCCC[C@H](NC(=O)[C@@H]1CCCN1C(=O)[C@@H](NC(=O)[C@H](Cc1c[nH]cn1)NC(=O)[C@@H](NC(=O)[C@H](CCC(=O)O)NC(=O)CC(C)C)[C@@H](C)O)C(c1ccccc1)c1ccccc1)C(=O)NCCCc1ccccc1` [compound 108]: the IC50 was above 500 nM on ferroportin [1] (setting [3]) and 0.1 to 10 nM on ferroportin [2] (setting [4]).

Consider `CCCCCCCCCCCCCCCC(=O)N[C@@H](CCCC[N+](C)(C)C)C(=O)NCCCC[C@H](NC(=O)[C@@H]1CCCN1C(=O)[C@@H](NC(=O)[C@H](Cc1c[nH]cn1)NC(=O)[C@@H](NC(=O)[C@H](CCC(=O)O)NC(=O)CC(C)C)[C@@H](C)O)C(c1ccccc1)c1ccccc1)C(=O)NCCCCc1ccccc1` [compound 200], for which the IC50 was 1 to 30 nM on ferroportin [1] (setting [3]) and 10 to 100 nM on ferroportin [2] (setting [4]).

Turning to `CC(=O)NCC[N+](C)(C)CC(=O)NCCOCCOCC(=O)NCCOCCOCC(=O)NCCCC[C@H](NC(=O)[C@@H]1CCCN1C(=O)[C@@H](NC(=O)[C@H](Cc1c[nH]cn1)NC(=O)[C@@H](NC(=O)[C@H](CCC(=O)O)NC(=O)CC(C)C)[C@@H](C)O)C(c1ccccc1)c1ccccc1)C(=O)NCCCCc1ccccc1` [compound 211], the IC50 on ferroportin [1] (setting [3]) and on ferroportin [2] (setting [4]) was 100 to 500 nM throughout.

Take `COC(=O)CC[C@H](NC(=O)CC(C)C)C(=O)N[C@H](C(=O)N[C@@H](Cc1c[nH]cn1)C(=O)N[C@H](C(=O)N1CCC[C@H]1C(=O)N(C)[C@@H](CCCCNC(=O)CCCCCNC(=O)C[N+](C)(C)CCNC(=O)CCCCCCCCCCCCCCCCC(=O)O)C(=O)N[C@H](C(=O)N[C@H](CCCCN)C(N)=O)C(c1ccccc1)c1ccccc1)C(c1ccccc1)c1ccccc1)[C@@H](C)O` [compound 39]: the IC50 on ferroportin [1] (setting [5]) and on ferroportin [2] (setting [6]) was above 500 nM throughout.

With `CC(C)CC(=O)N[C@@H](CCC(=O)O)C(=O)N[C@H](C(=O)N[C@@H](Cc1c[nH]cn1)C(=O)N[C@H](C(=O)N1CCC[C@H]1C(=O)N[C@H](CCCCN)C(=O)N(CC1CC1)C(CCCCCCC(=O)O)C(=O)O)C(c1ccccc1)c1ccccc1)[C@@H](C)O` (stereo partly shown) [compound 154], the concentration for half-maximal inhibition (IC50) at ferroportin [1] is above 500 nM; on ferroportin [2] (IC50: T47D MSA (nM, Table 1D)), above 500 nM.

`CCCCCCCCCCCCCCCC(=O)NCC[N+](C)(C)CC(=O)NCCCC[C@H](NC(=O)[C@@H]1CCCN1C(=O)[C@@H](NC(=O)[C@H](Cc1c[nH]cn1)NC(=O)[C@@H](NC(=O)[C@H](CCC(=O)O)NC(=O)CC(C)C)[C@@H](C)O)C(c1ccccc1)c1ccccc1)C(=O)NCCCCc1ccccc1` [compound 218]: the IC50 fell in the range of 1 to 30 nM on ferroportin [1] (setting [3]) and 10 to 100 nM on ferroportin [2] (setting [4]).

With `CCCCCCCCCCCCCCCC(=O)NCC[N+](C)(C)CC(=O)NCCOCCOCC(=O)NCCOCCOCC(=O)NCCCC[C@H](NC(=O)[C@@H]1CCCN1C(=O)[C@@H](NC(=O)[C@H](Cc1c[nH]cn1)NC(=O)[C@@H](NC(=O)[C@H](CCC(=O)O)N(C)C(=O)CC(C)C)[C@@H](C)O)C(c1ccccc1)c1ccccc1)C(=O)NCCCCCc1ccccc1` [compound 110], the IC50 on ferroportin [1] (setting [3]) lay in the range of 1 to 30 nM; at ferroportin [2] (setting [4]), 0.1 to 10 nM.

As for `CC(C)CC(=O)N[C@@H](CCC(=O)O)C(=O)N[C@H](C(=O)N[C@@H](Cc1c[nH]cn1)C(=O)N[C@H](C(=O)N1CCC[C@H]1C(=O)N[C@@H](CCCCNC(=O)COCCOCCNC(=O)COCCOCCNC(=O)[C@H](CN)NC(=O)CCCCCCCCCCC(=O)O)C(=O)NCCCCCc1ccccc1)C(c1ccccc1)c1ccccc1)[C@@H](C)O` [compound 96], the IC50 is 1 to 30 nM at ferroportin [1] (setting [3]) and 10 to 100 nM on ferroportin [2] (setting [4]).

`CCCCCCCCCCCCCCCC(=O)NCC[N+](C)(C)CC(=O)NCC[N+](C)(C)CC(=O)NCCCC[C@@H](C(=O)NCCCCCc1ccccc1)N(C)C(=O)[C@@H]1CCCN1C(=O)[C@@H](NC(=O)[C@H](Cc1c[nH]cn1)NC(=O)[C@@H](NC(=O)[C@H](CCC(=O)OC)NC(=O)CC(C)C)[C@@H](C)O)C(c1ccccc1)c1ccccc1` [compound 68]: the concentration for half-maximal inhibition (IC50) on ferroportin [1] (setting [3]) was 30 to 100 nM; at ferroportin [2] (setting [4]), 0.1 to 10 nM.
